{"source": "patent US20210000933A1", "about": "“TUMOR VACCINE” (CELL-MEDICINE, INC., priority 2019, published 2021)", "origin": "cited, not measured here", "molecules": {"B1": {"name": "interferon beta: interferon beta additionally used in the standard therapy in the JCOG0911 INTEGRA study (protein, UniProt P01574 22-187, looked up)", "Interferon beta": "MSYNLLGFLQRSSNFQCQKLLWQLNGRLEYCLKDRMNFDIPEEIKQLQQFQKEDAALTIYEMLQNIFAIFRQDSSSTGWNETIVENLLANVYHQINHLKTVLEEKLEKEDFTRGKLMSSLHLKRYYGRILHYLKAKEYSHCAWTIVRVEILRNFYFINRLTGYLRN"}}, "test_system": "newly diagnosed glioblastoma"}
{"molecule": "B1", "values": [{"measurement": "mPFS", "setting": "interferon beta administration group (control group 10.1 months)", "result": 8.5, "unit": "months"}, {"measurement": "mOS", "setting": "interferon beta administration group (control group 20.3 months)", "result": 24.0, "unit": "months"}]}
